How the values were obtained:
[1] = biological target: T1, human Folate Receptor 1 (FolR1-Fc) (Homo sapiens, UniProt P15328); assay: SPR avidity to Folate Receptor 1 (bivalent binding); settings: ligand huFolR1, approximated 1:1 Langmuir fit, read-out: Apparent KD
T1 construct: the extracellular domain of the antigen linked to the hinge region of Fc-knob; made in house; host or cells: HEK293 EBNA
From the text: The immobilization level was about 300-400 RU. […] The dissociation was monitored for 600 seconds.

The chains behind the UniProt entries cited, without tags or fusion partners. A line that says so, or that is headed by a name, gives the form on record, which may keep a tag or linker.
UniProt P15328, with tags, fused parts or gaps: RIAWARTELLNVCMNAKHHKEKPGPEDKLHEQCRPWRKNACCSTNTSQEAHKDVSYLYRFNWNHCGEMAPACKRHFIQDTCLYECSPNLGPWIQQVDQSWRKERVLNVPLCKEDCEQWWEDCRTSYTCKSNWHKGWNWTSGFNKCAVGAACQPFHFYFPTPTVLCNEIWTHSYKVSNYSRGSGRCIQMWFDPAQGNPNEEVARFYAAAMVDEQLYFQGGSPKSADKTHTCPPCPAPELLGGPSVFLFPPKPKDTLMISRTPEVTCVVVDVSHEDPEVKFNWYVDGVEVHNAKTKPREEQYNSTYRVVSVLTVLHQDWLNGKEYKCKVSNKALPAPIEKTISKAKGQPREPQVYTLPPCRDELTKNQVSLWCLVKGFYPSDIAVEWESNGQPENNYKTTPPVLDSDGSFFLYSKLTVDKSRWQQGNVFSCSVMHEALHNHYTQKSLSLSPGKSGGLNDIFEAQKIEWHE

[2] = biological target: human Folate Receptor 1 Fc fusion (Homo sapiens, UniProt P15328); settings: monovalent binding (affinity), analyte huFolR1
Description: Binding of FolR1 binders as IgG or in the T-cell bispecific format to different recombinant folate receptors (human FolR1, 2 and 3, murine FolR1 and cynomolgus FolR1; all as Fc fusions) was assessed by surface plasmon resonance (SPR). All SPR experiments were performed on a Biacore T200 at 25° C. with HBS-EP as running buffer (0.01 M HEPES pH 7.4, 0.15 M NaCl, 3 mM EDTA, 0.005% Surfactant P20, Biacore, Freiburg/Germany).
For affinity measurement, direct coupling of around 6000-7000 resonance units (RU) of the anti-human Fab specific antibody (Fab capture kit, GE Healthcare) was performed on a CM5 chip at pH 5.0 using the standard amine coupling kit (GE Healthcare). Anti-FolR1 IgGs or T cell bispecifics were captured at 20 nM with a flow rate of 10 μl/min for 20 or 40 sec, the reference flow cell was left without capture. Dilution series (6.17 to 500 nM or 12.35 to 3000 nM) of human or cyno Folate Receptor 1 Fc fusion were passed on all flow cells at 30 μl/min for 120 or 240 sec to record the association phase. The dissociation phase was monitored for 240 s and triggered by switching from the sample solution to HBS-EP. The chip surface was regenerated after every cycle using a double injection of 60 sec 10 mM Glycine-HCl pH 2.1 or pH 1.5. Bulk refractive index differences were corrected for by subtracting the response obtained on the reference flow cell 1. […]

Farletuzumab [reference compound] gave a Kd [1] of 0.73 nM and a Kd [2] of 55.3 nM.
